Literature values, collected in patent US20190091190A1, “COMBINATION THERAPY FOR TREATMENT OF MULTIPLE SCLEROSIS” (FWP IP ApS, priority 2012, published 2019).

Experiments:
patients with RRMS [1] = settings: 30 μg/week i.m.
patients with RRMS [2] = settings: Rebif arm
RRMS patients = settings: interferon beta-1a arm

Avonex: intramuscular IFN-b-1a, 30 μg/week, comparator in TRANSFORMS
AE leading to the discontinuation of study medication (patients with RRMS [1]): 3.7% | overall number of SAE (patients with RRMS [1]): 5.8% | patients remaining relapse-free (patients with RRMS [1]; 12 months): 69%

B1: Rebif: Interferon beta-1a product, comparator arm in TENERE (protein, UniProt P01574 22-187, looked up)
Interferon beta: MSYNLLGFLQRSSNFQCQKLLWQLNGRLEYCLKDRMNFDIPEEIKQLQQFQKEDAALTIYEMLQNIFAIFRQDSSSTGWNETIVENLLANVYHQINHLKTVLEEKLEKEDFTRGKLMSSLHLKRYYGRILHYLKAKEYSHCAWTIVRVEILRNFYFINRLTGYLRN
relapse rate (patients with RRMS [2]): 0.216

B2: interferon beta-1a: exploratory interferon beta-1a arm in BRAVO, brand not stated (protein, UniProt P01574 22-187, looked up)
Interferon beta: MSYNLLGFLQRSSNFQCQKLLWQLNGRLEYCLKDRMNFDIPEEIKQLQQFQKEDAALTIYEMLQNIFAIFRQDSSSTGWNETIVENLLANVYHQINHLKTVLEEKLEKEDFTRGKLMSSLHLKRYYGRILHYLKAKEYSHCAWTIVRVEILRNFYFINRLTGYLRN
treatment effect on brain atrophy (RRMS patients): no treatment effect | ARR reduced compared to placebo (RRMS patients; p=0.002): 29% | disability progression reduced (RRMS patients; p=0.089): 29%
